Common to all, as to type: cell-based
Assay [1] deals with SKBR-3 (HER2+) breast adenocarcinoma cell line. The experiment in a line: Flow cytometry binding to SKBR-3 cells. As to conditions: 0.003 to 30 μg/mL, secondary anti-human IgG Fc Alexa 488. How it is done: (§1) For SK-BR-3 cells, the concentration of antibody or antibody conjugate ranged from 0.003 to 30 μg/mL ( 1/10 dilutions were made). For MD-MB-231 cells, only 3 and 30 μg/mL were used. […] Dead cells were excluded with DRAQ7. Error bars: SD (n=2).
(§2) Subsequently, a fluorescent secondary antibody specific for trastuzumab was added to measure the binding by fluorescence.
For orientation: A flow cytometer gives signals particle by particle.

Assay [2] deals with MDA-MB-231 (HER2−) breast adenocarcinoma cell line. The experiment in a line: Flow cytometry binding to MDA-MB-231 cells. As to conditions: 3 and 30 μg/mL, negative control cells. Here is the method:
as §1, §2

Assay [3] deals with MDA-MB33 (HER2−) breast adenocarcinoma cell line. In words: Flow cytometry binding to MDA-MB33 cells. Conditions: negative control cells, data not shown.

Take “trastuzumab: unlabeled monoclonal IgG1 antibody [reference compound]”: in assay [1], the “binding to SKBR-3 cells, median fluorescence intensity (MFI)” value is recorded as “increased in a dose-response manner”. Also, the “binding to MDA-MB-231 cells” value in assay [2] is listed as “No binding”. With “trastuzumab-DOTA conjugate: trastuzumab-DOTA conjugate prepared in the same manner as in Example 6 (similar to conjugate 8; DoC=0.89)”, the “binding to SKBR-3 cells, median fluorescence intensity (MFI)” value in assay [1] was “does not affect antibody binding”. In addition, in assay [2], the “binding to MDA-MB-231 cells” value is given as “No binding”. In the case of “Conjugate 12: trastuzumab-FITC (random) conjugate, 10 eq of FITC, 16 hours”, the “binding to MDA-MB33 cells” value in assay [3] was “No binding”.

The record behind these values is US20230046947A1, “REACTIVE CONJUGATES” (Debiopharm Research & Manufacturing S.A., priority 2019, published 2023).
